{"source": "patent US9504675B2", "about": "“Alpha-ketoheterocycles and methods of making and using” (The Scripps Research Institute, priority 2011, dated 2016)", "system": "mice with CCI neuropathic pain", "assay": "Chronic constriction injury (CCI) of the sciatic nerve: mechanical (von Frey) and cold (acetone) allodynia", "format": "in vivo, mouse (C57BL/6)", "conditions": "50 mg/kg p.o., 10 days after CCI, vs vehicle", "procedure": "Surgery was performed as follows. Briefly, the right hind leg of male C57BL/6 mice was shaved and swabbed with betadine solution and ethanol. Posterior to the femur, an incision was made and the sciatic nerve was visualized and isolated, following muscle separation. The nerve was ligated twice with 5-0 (1.0 metric) black silk braided suture (Surgical Specialties Corporation, Reading, Pa.). The surrounding muscle and skin were then sutured with 6-0 nylon. Mice were recovered in a heated cage and observed for approximately 2 h before being returned to the vivarium.\nAllodynia was initially tested 10 days after surgery. Male C57BL/6 mice were habituated to the test apparatus for 2 h on the 2 days prior to testing. […] Mechanical allodynia was assessed with von Frey filaments (North Coast Medical, Morgan Hill, Calif.), using the “up-down” method. […] Once a positive response was detected, sequentially lighter-weight filaments were used to assess paw withdrawal threshold. […] Total time lifting or clutching each paw was recorded, with a maximum time of 20 s.\nData Analyses: Behavioral data were analyzed using a two-way mixed factorial analysis of variance (ANOVA) for each paw, with drug treatment as the between subjects measure, and time as the within subjects measure. […]"}
{"compound": "O=C(c1ncc(-c2ccccn2)o1)C1CCc2cc(Oc3ccccc3)ccc2C1", "note": "(centres unmarked) [Compound 12, (6-Phenoxy-1,2,3,4-tetrahydronaphthalen-2-yl)(5-(pyridin-2-yl)oxazol-2-yl)methanone]", "values": [{"measurement": "cold allodynia (acetone-induced), paws ipsilateral to CCI surgery", "value": "significantly attenuated"}, {"measurement": "mechanical allodynia (von Frey), paws ipsilateral to CCI surgery", "value": "significantly attenuated"}]}
